# pKi: −log10 of the molar value.
# Chains of the proteins cited; added tags and fusions are not shown.
# UniProt P35367, whole entry: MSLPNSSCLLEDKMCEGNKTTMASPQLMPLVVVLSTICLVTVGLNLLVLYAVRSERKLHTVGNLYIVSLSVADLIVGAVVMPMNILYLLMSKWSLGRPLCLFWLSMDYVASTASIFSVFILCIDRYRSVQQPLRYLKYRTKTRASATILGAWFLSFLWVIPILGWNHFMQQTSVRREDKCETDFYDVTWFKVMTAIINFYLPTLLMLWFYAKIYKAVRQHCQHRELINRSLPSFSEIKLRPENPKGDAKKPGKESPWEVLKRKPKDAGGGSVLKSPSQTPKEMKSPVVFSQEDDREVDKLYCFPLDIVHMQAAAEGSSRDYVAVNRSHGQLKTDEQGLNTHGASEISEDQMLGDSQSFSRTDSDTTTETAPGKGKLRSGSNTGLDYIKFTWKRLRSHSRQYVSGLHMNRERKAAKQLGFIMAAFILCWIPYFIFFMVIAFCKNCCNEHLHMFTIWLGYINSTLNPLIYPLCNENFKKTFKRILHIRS
# Biological target: T1, human H1 receptor (Homo sapiens, UniProt P35367)
# T1 construct: expressed in transfected cells; host or cells: CHO cells (crude membranes)
# Assay: Human histamine H1 receptor binding assay
# Protocol: Compounds of the present invention may be evaluated for binding to the histamine H1 receptor by a standard binding assay. […] Non-specific binding is determined in the presence of excess (1 μM) doxepin. Bound and free ligand are separated by rapid vacuum filtration using a Packard 96-well cell harvester onto UniFilter GF/C filter plates (PerkinElmer) that has been pretreated with 1% polyethyleneimine. The filter plates are then washed with 600 μl phosphate buffered saline containing 0.01% (v/v) Triton-X100. Bound radioligand is determined by scintillation counting using a TopCount-NXT (Packard). Binding data is analyzed by nonlinear, least-squares curve fitting algorithms using GraphPad Prism (GraphPad Software, Inc. San Diego, Calif.) or ActivityBase (IDBS, Guildford, Surrey, UK).
structure (smiles),measurement,value
COc1ccc2c(c1)CC(CCN(C)C)=C2C(C)c1nc(C)cs1 (stereo not shown) [22-4],pKi,≥ 6.60

# Reference: patent US20050277645A1, “Sleep inducing compounds and methods relating thereto” (Neurocrine Biosciences, Inc., priority 2004, published 2005)
